Measurements as given in patent publication EP0381656A1, “Alcohol-soluble/water-insoluble oil-containing antifreeze” (FIRST BRANDS CORPORATION, priority 1989, dated 1990).

Assay: Contact angle of polypropylene glycol oil drop, all seven metals taken together
Assay type: physicochemical
Conditions: 0.3 weight percent DSA, 33 volume percent solution, buffered pH of 7.8 to 8.3; shown in the Figure

measured contact angles compared with Test Composition D (no surface modifier): lowering of the measured contact angles
Substance: 2-dodecen-1-yl succinic anhydride [DSA]
